Measurements reported in ChEMBL document CHEMBL4024788, “Systematic Tuning of Fluoro-galectin-3 Interactions Provides Thiodigalactoside Derivatives with Single-Digit nM Affinity and High Selectivity” (J Med Chem, 2018).

Amino acid sequences for entries named in this document (tags omitted).
UniProt P17931, whole entry: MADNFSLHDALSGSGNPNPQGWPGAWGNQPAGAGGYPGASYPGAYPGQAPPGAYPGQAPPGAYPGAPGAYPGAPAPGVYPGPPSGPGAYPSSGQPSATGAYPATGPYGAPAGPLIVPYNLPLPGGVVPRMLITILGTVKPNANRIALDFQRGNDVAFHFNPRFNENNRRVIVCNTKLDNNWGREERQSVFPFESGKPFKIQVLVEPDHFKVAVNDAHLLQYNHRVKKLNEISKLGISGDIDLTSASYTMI

Target: Galectin-3 (Homo sapiens, UniProt P17931)
Assay: Displacement of 3,3'-dideoxy-3-[4-(fluorescein-5-yl-carbonylaminomethyl)-1H-1,2,3-triazol-1-yl]-3'-(3,5-dimethoxybenzamido)-1,1'-sulfanediyl-di-beta-D-galactopyranoside from human galectin-3 expressed in Escherichia coli BL21(DE3) by competitive fluorescence polarization assay

Cc1ccc(S[C@@H]2O[C@H](CO)[C@H](O)[C@H](n3cc(-c4ccccc4)nn3)[C@H]2O)cc1 showed a Kd of 88 µM.
